Chains of the proteins cited; added tags and fusions are not shown.
UniProt Q99683, whole entry: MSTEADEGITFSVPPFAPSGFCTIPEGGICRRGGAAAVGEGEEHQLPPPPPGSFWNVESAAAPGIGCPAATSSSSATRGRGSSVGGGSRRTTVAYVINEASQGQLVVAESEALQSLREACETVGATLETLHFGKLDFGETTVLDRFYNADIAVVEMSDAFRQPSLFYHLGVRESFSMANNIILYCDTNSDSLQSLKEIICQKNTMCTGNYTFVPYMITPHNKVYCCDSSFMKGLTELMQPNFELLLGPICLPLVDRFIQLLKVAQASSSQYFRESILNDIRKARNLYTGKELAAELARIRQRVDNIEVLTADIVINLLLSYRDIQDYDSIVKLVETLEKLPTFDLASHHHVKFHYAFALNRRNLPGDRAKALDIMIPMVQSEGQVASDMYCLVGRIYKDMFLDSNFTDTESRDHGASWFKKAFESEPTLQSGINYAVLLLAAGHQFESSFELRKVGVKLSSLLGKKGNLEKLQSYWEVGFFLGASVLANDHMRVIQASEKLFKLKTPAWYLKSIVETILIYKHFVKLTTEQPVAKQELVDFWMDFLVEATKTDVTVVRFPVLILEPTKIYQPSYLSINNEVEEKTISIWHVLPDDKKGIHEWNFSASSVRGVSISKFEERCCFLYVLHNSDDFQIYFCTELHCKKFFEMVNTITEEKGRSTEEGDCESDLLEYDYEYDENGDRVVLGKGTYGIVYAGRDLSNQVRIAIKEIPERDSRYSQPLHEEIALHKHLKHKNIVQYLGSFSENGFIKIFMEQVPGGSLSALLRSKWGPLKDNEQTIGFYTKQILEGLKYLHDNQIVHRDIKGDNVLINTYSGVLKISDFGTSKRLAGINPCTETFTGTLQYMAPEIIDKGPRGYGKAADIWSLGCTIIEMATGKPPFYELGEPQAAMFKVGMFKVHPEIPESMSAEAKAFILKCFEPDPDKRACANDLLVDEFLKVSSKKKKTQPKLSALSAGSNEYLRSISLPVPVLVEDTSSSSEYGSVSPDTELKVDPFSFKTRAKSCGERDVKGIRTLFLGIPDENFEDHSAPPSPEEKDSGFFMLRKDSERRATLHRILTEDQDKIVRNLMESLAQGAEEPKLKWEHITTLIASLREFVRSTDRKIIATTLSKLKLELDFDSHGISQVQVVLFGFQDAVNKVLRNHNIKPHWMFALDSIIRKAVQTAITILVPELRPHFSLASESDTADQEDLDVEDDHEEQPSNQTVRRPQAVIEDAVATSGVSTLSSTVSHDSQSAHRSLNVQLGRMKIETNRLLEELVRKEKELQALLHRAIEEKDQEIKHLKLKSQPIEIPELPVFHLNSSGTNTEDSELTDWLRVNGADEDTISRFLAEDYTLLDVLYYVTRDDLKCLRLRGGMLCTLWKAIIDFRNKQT

According to US10919911B2, “Tricyclic ASK1 inhibitors” (Terns, Inc., priority 2018, dated 2021):

Target: ASK1 kinase (Homo sapiens (Human), UniProt Q99683)
Test: RBC Kinase Assay (33P-ATP radiometric, myelin basic protein substrate)
Settings: 20 ng ASK1 kinase, MBP substrate, 120 min at room temperature, 1% DMSO
Method: Example B1. RBC Kinase Assay Protocol
Base Reaction buffer: 20 mM Hepes (pH 7.5), 10 mM MgCl2, 1 mM EGTA, 0.02% Brij35, 0.02 mg/ml BSA, 0.1 mM Na3VO4, 2 mM DTT, and 1% DMSO were used for the assay.
Myelin base protein (MPB) was prepared in freshly prepared Base Reaction Buffer. 20 ng of ASK1 kinase was delivered into the substrate solution and gently mixed. Compounds in DMSO were delivered into the kinase reaction mixture (final DMSO concentration 1%). Commercially available 33P-ATP was delivered into the reaction mixture to initiate the reaction. The kinase reaction was incubated for 120 min. at room temperature. Reactions were spotted onto P81 ion exchange paper (Whatman #3698-915). Filters were washed extensively in 0.75% Phosphoric acid. Radioactivity on filters was read, and IC50 values were determined.

- IC50: 24.7 nM
SMILES: C[C@@H]1Cn2nnnc2-c2cccc(NC(=O)c3cc(-n4cnc(C5CC5)c4)ccn3)c2O1
